Antibody variant affinities, Ab-14 heavy chain, assay B

Target: peptide PDVDLGDISGINAS, taken from heptad repeat 2 (HR2) of SARS-CoV-2 spike.

Ab-14 is the parent antibody, in scFv form: VH, then three GGGGS repeats, then VL. The light chain is unchanged in all variants.
VH: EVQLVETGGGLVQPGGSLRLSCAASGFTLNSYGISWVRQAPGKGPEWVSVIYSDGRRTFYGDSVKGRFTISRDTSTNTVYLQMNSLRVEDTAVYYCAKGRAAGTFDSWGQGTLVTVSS
VL: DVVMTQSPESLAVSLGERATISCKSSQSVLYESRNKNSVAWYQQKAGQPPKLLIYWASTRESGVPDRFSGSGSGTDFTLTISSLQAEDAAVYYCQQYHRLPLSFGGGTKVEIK

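The parent was found by panning a naive human phage display library on the peptide. These sequences belong to a second round, designed from the earlier measurements on random variants of the parent. Their group label is 14H_Rand (Rand: our label for a block that the file lists under HC and that is probably the random mutants of the ten best first-round binders). Affinity was read by AlphaSeq, a pooled yeast mating assay with surface-displayed partners. Binding brings cells together so that they mate, and sequencing counts the barcode pairs among the diploids. Each replicate has its own calibration line, from reference interactions of the BCL2 family. There are six technical replicates.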

Changes read parent residue, position, new residue, counted from the first residue of the VH shown. Values are log10 of the apparent Kd in nM; lower means stronger binding. A mean of the replicates is given; it leaves out those without a signal. Where no diploid with the target was found in that replicate, the entry reads "ND": below detection, most likely a poor binder, though not proof of it. Of ten entries with the parent sequence, four were seen in most replicates (averages 0.34 to 2.37), three in one and three in none, so single entries are noisy. Values of this round are not directly comparable with the first-round values of the same sequences. The authors' rule: three or more of the six replicates give a measured affinity, fewer mean a poor binder. Background: pairings of all heavy chain designs with three empty control strains gave a value in 1% of cases (median 2.08, 5th percentile 0.84). Values in that range, when seen in few replicates, are hard to tell from nonspecific mating. Also given: how often the same scFv was detected with the empty control strains, with their mean in brackets.

{"changes": "S53A+S63K+R100L+F105N+D106K", "replicates, log10 nM": "ND ND ND ND ND ND", "mean log10 Kd (nM)": "ND", "control signals": "0 of 18"}
{"changes": "S31D+F59Q+G61I+S63I+A101N", "replicates, log10 nM": "ND ND 0.95 ND ND ND", "mean log10 Kd (nM)": "0.95", "control signals": "0 of 18"}
{"changes": "S31E+Y32V+R56E+G61T+A101F", "replicates, log10 nM": "1.80 2.28 ND 1.86 1.67 2.05", "mean log10 Kd (nM)": "1.93", "control signals": "0 of 18"}
{"changes": "S53A+T58M+F105N+D106K", "replicates, log10 nM": "ND ND ND ND ND ND", "mean log10 Kd (nM)": "ND", "control signals": "1 of 18 (2.92)"}
{"changes": "S31E+I51E+S53N+D54N+T58R+G61T+A101F", "replicates, log10 nM": "ND ND ND ND ND ND", "mean log10 Kd (nM)": "ND", "control signals": "1 of 18 (2.39)"}
{"changes": "S31D+Y52N+G55W+G103L+D106I", "replicates, log10 nM": "ND ND ND ND ND ND", "mean log10 Kd (nM)": "ND", "control signals": "0 of 18"}
{"changes": "N30A+S31D+F59Q+G61I", "replicates, log10 nM": "ND ND ND ND 2.93 1.36", "mean log10 Kd (nM)": "2.15", "control signals": "0 of 18"}
{"changes": "S53A+G61W+F105N+D106K", "replicates, log10 nM": "ND ND ND ND ND ND", "mean log10 Kd (nM)": "ND", "control signals": "0 of 18"}
{"changes": "G26H+S31Q+G61S+S63L+T104F", "replicates, log10 nM": "ND ND ND ND ND ND", "mean log10 Kd (nM)": "ND", "control signals": "0 of 18"}
{"changes": "S31E+G33S+S53E+G61T+A101F", "replicates, log10 nM": "ND ND ND ND ND ND", "mean log10 Kd (nM)": "ND", "control signals": "0 of 18"}
{"changes": "N30D+G61D+R100Q+A101L+F105S", "replicates, log10 nM": "ND ND ND ND ND ND", "mean log10 Kd (nM)": "ND", "control signals": "0 of 18"}
{"changes": "L29M+N30S+G61D+R100Q+A101L+A102K", "replicates, log10 nM": "ND ND ND ND ND ND", "mean log10 Kd (nM)": "ND", "control signals": "0 of 18"}
{"changes": "S31Q+Y60I+T104F", "replicates, log10 nM": "ND ND ND ND ND ND", "mean log10 Kd (nM)": "ND", "control signals": "0 of 18"}
{"changes": "S31Q+I34W+Y60C+G61S+T104F", "replicates, log10 nM": "ND ND ND ND ND ND", "mean log10 Kd (nM)": "ND", "control signals": "0 of 18"}
{"changes": "S31E+S53L+F59G+G103V+S107E", "replicates, log10 nM": "ND ND ND ND ND 2.62", "mean log10 Kd (nM)": "2.62", "control signals": "0 of 18"}
{"changes": "F27I+G61D+R100Q+A101L", "replicates, log10 nM": "ND 1.08 ND ND 0.15 ND", "mean log10 Kd (nM)": "0.61", "control signals": "0 of 18"}
{"changes": "T28N+S53A+G61V+F105N+D106K", "replicates, log10 nM": "ND ND ND ND ND ND", "mean log10 Kd (nM)": "ND", "control signals": "0 of 18"}
{"changes": "L29W+S31E+Y60K+G61T+D62C+A101F", "replicates, log10 nM": "ND ND ND ND ND ND", "mean log10 Kd (nM)": "ND", "control signals": "0 of 18"}
{"changes": "S53A+F105P+D106K", "replicates, log10 nM": "ND ND ND ND ND ND", "mean log10 Kd (nM)": "ND", "control signals": "0 of 18"}
{"changes": "G26K+I34D+G61D+S63T+R100Q+A101L", "replicates, log10 nM": "ND ND ND ND ND ND", "mean log10 Kd (nM)": "ND", "control signals": "0 of 18"}
{"changes": "N30D+I34E+I51Y+F105A+D106L", "replicates, log10 nM": "ND ND ND ND ND ND", "mean log10 Kd (nM)": "ND", "control signals": "0 of 18"}
{"changes": "S31E+Y60K+G61T+A101F", "replicates, log10 nM": "ND ND ND ND ND ND", "mean log10 Kd (nM)": "ND", "control signals": "0 of 18"}
{"changes": "G26P+T28D+T104W+D106N", "replicates, log10 nM": "ND ND ND ND ND ND", "mean log10 Kd (nM)": "ND", "control signals": "1 of 18 (2.00)"}
{"changes": "N30A+S31E+G103V+S107Q", "replicates, log10 nM": "ND 0.89 ND 0.55 1.00 1.25", "mean log10 Kd (nM)": "0.92", "control signals": "0 of 18"}

For reference, 3 entries of the list once more:

| changes | replicates, log10 nM | mean log10 Kd (nM) | control signals |
|---|---|---|---|
| S53A+G61W+F105N+D106K | ND ND ND ND ND ND | ND | 0 of 18 |
| S31Q+Y60I+T104F | ND ND ND ND ND ND | ND | 0 of 18 |
| G26P+T28D+T104W+D106N | ND ND ND ND ND ND | ND | 1 of 18 (2.00) |

Values reported by Li et al. 2023, doi:10.1038/s41467-023-39022-2 (FLAb copy).